# Apparent affinities of Ab-14 variants for a coronavirus HR2 peptide

From the AlphaSeq antibody data of Li et al. 2023 (doi:10.1038/s41467-023-39022-2), copy in the FLAb collection.

Antigen: PDVDLGDISGINAS, a 14-residue peptide of the SARS-CoV-2 spike HR2 region.

Parent: Ab-14, a human scFv built as VH, three GGGGS repeats, VL. Only the CDRs of the light chain vary.
VH: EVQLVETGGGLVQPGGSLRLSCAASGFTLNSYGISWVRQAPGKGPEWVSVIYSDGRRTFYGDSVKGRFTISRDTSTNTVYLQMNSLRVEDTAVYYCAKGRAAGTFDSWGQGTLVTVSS
VL: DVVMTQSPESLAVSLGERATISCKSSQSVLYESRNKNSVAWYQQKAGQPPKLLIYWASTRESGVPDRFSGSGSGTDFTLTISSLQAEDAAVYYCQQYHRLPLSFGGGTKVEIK

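Phage display of a naive human antibody library on the peptide gave the parent. This is the validation round: designs drawn from the data on random variants, tested in the same kind of assay. Several design methods are mixed in this list. AlphaSeq pools MATa yeast showing the antibodies with MATalpha yeast showing the peptide. Mating (16 h, 30 °C) was followed by selection of diploids and sequencing of their barcodes. Read counts were normalised to the haploid input and turned into Kd by a linear fit to BCL2-family pairs of known affinity, for each replicate. There are six technical replicates.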

Each variant is given by its three light chain CDRs, as the data file delimits them; those of the parent are KSSQSVLYESRNKNSVA, WASTRES, QQYHRLPLS.
Scale: log10 of Kd in nM, estimated from mating counts; low values are strong binders.
The mean shown is taken over the replicates in which the pair was detected.
An entry "no signal" has no value in the source: the pair was not observed among the diploids in any replicate. This suggests poor binding but is not conclusive.
Nonspecific signal, from three strains lacking the peptide, appeared in 4% of pairings of all light chain designs, centred on 2.64 (5% of these signals below 1.59); values are not corrected for it.
A sequence measured in both rounds can read differently, since the two assays cover different ranges.
The authors' rule: three or more of the six replicates give a measured affinity, fewer mean a poor binder.

"log10 Kd (nM), mean",seen in,CDR-L1,CDR-L2,CDR-L3
-0.54,6 of 6,KVSQSVLYESRNKNNVA,DASQRES,QQYHRLPLS
0.51,6 of 6,KSSLSVLYESRNKNSVA,NASTRES,QQYHRLPLS
0.74,6 of 6,KLAMILSMEAGTYHGVA,DANHKAD,QQYNRLPLS
1.61,5 of 6,KSSQSVLMESRNKNSVA,QASTRES,QQYHRLPLS
0.07,6 of 6,KSSWSVLLESRNKNSVA,DASTRES,QQYHRLPLS
1.40,6 of 6,TISQSVLMTGLNRNSVA,QAETRIE,QQYHRLPLS
0.36,6 of 6,KLSQSQLYESRNSNSVA,NGSTRES,QDYHRLPLS
1.34,1 of 6,KSLWSVLYESANKNSVA,HASTRED,QQYHRLPLS
1.71,2 of 6,KSSFSVLLESRNKNSVA,WDSTRWS,QQYHRLPLS
0.03,6 of 6,KLPQSVGYESRNKNSVA,EASTRES,QQYHRLPLS
2.18,6 of 6,KLSQSVLYEFRNKNSVA,WASTRIS,QQYHRLPLS
no signal,0 of 6,KSSQSVLNESRNKNSVA,WASTPES,QQYHRLPLS
0.93,5 of 6,SLGLVTMLEYANRNNVA,NNSTREA,QQYDRLPLS
2.03,6 of 6,KSSQLVLHESRNYNSVA,EASTRES,QWYHRLPLS
1.98,6 of 6,KSSQSVLYQSKNKNSVA,WASTRES,QQYMRLPLS
0.68,6 of 6,HLSDTVMQGMYYRNSVA,QESTRAD,QQYHHLPLS
1.08,6 of 6,NLMSHQGRYDVWKYSIA,EASIRAS,QQYFRLPLA
0.28,6 of 6,KSGQGVLYESRNQNSVA,GASTRES,QQYHRLPLS
0.40,6 of 6,KLSISMLHESINKHSVA,EVRTREP,QQYDRLPLS
0.25,6 of 6,HFSQVTMYGSWVKNSVA,QTSTREE,QQYDRLPLS
no signal,0 of 6,KLDMHIPSQWEWKASIA,GTTLRLT,QDYARLPLS
-0.02,6 of 6,KSSQSVGYESRNENSVA,SASTRES,QQYHRLPLS
0.33,6 of 6,KIGHTLNTLYEKANNVA,DLVEREN,QQYHRLPLS
2.57,5 of 6,KSNQSVLYESRNKNSVA,WASTRES,QQYHRLPLS
2.20,1 of 6,KLSMSYRYESENKNSIA,ELVTRLS,QQYHRLPLS
-0.21,6 of 6,KGSGSVKFESRNKNSVA,DASTRES,QQYHRLPLS
2.91,4 of 6,KSSQSGLYCSTNENSVA,WASTRES,QQYHRLPLS
0.15,6 of 6,KCQQSQDYESRNKNAVA,NASQRED,QQYHRLPLS
0.02,6 of 6,KSSISDLYESRMKNSVA,EASTRES,QQYHRLPLS
-0.05,6 of 6,MISTVMNTLTHEGNNVA,DLQEREK,QQYFRLPLS
-0.35,6 of 6,KLSESVLYESRNKNSVA,GASTRES,QQYHRLPLS
no signal,0 of 6,RSLQSVLYESRNKPSVA,HASTRED,QQYHRLPLS
1.14,6 of 6,MISQVMNTLTRHGNNVA,DLETRED,QQYFRLPLS
-0.18,6 of 6,KVSQSELYESRNKNSVA,EASQRES,QQYHRLPLS
-0.05,6 of 6,FLSQSVLYEDRNKNSVA,NASTRES,QQYHRLPLS
1.03,6 of 6,QLEFEDVQGTAKWHAIA,EGSQLAQ,QQYFHLPLG
1.19,6 of 6,KLSQQNLYESRNKNSVA,NASQRLS,QCYHRLPLS
-0.09,6 of 6,SISGFMKSLAAHMNSVA,DMTNRED,QQYNRLPLS
0.13,6 of 6,KLYQSMGYLSHNKNSIA,DMTRREN,QQYHRLPLS
0.14,6 of 6,KLSGSYLYESRNKNSVA,EASTRES,QQYHRLPLS
0.89,6 of 6,KLSQSEPYESRNKNSVA,EASTRES,QQYHRLPLS
0.04,6 of 6,KHSQSVLYESRNKDSVA,AASTRES,QQYHRLPLS
0.89,6 of 6,KLTQHMRFEQKKKNNIA,EVTTRSK,QQYARLPLI
1.78,6 of 6,MFSQMTGLGMKAKNSVA,QASMRFD,QQYHRLPLI
2.44,2 of 6,MIAESVMYESRNRNSVA,DNSTRED,QCYDRLPLS
0.06,6 of 6,KSDQSHLYGSRNKNSVA,NASERES,QQYHRLPLS
0.39,6 of 6,KIGMTLNSLMHKKNNVA,DLVERET,QQYFRLPLS
no signal,0 of 6,KISQSVLPESRNKNSVA,AASTRES,QQPGRLPLS
1.21,6 of 6,KFSQSVLYESRNNNSVA,WASTRER,QQYHRLPLS
-0.06,6 of 6,KLSQLELYESRNKNSVA,NASTRLS,QQYHRLPLS
0.05,6 of 6,HFSQSVLYESRTKNSVA,NASTRES,QQYHRLPLS
1.46,4 of 6,KSSFSVLFESFNKNSVA,AASTRES,QVYHEDPLS
-0.20,6 of 6,KLSGSVLYESRNKNSVA,NASTRLS,QQYHRLPLS
-0.31,6 of 6,QLSQSVLYESRNKNSVA,NASTRES,QQYHRLPLS
1.29,6 of 6,MLTQMTGWGMKASNSVA,QASTRFE,QQYHRLPLI
3.04,4 of 6,KLSQSVEYESRNKNSVA,WASTRES,QQYHYLPLS
2.15,6 of 6,KVSEFLRGLMGRKDSIA,DNETRNN,QQYDRLPLS
0.06,6 of 6,KVSQSVLYLSNNKNSVA,SASTRES,QSYHRLPLS
0.63,6 of 6,SMFEKEYEELQPENNIA,DTTARMV,QQYFRLPLL
no signal,0 of 6,MVSQLMLWGLHAKNSIA,EAQTRLN,QQYDRLPLD
0.93,6 of 6,LSSQSEYYEDANKMSVA,SASQRLS,QQYHRLPLS
0.28,6 of 6,KSSMSVLYESRNKNSVA,GASTRES,QQYHRLPLS
0.72,6 of 6,SLVSKADYMDSERNNIA,NMDLRNT,QQYFHLPLT
no signal,0 of 6,KSSQSVLMESVNKNSEA,WASTREA,QQYERLPLS
0.89,6 of 6,TMNHELIQDDPMMNNVA,DGSLKTA,QQYYRLPLS
-0.06,6 of 6,KVQQSFLYESRNVMSVA,NASTREE,QQYHRLPLS
0.35,6 of 6,KFSQSVMYESRNKNSVA,QASTRES,QQYHRLPLS
0.70,6 of 6,KSSQSVLYEGRNCNSVA,EASTREQ,QQYHRLPLS
0.70,6 of 6,KSSQSVLPESINKNSVA,NASTRSH,QQYHRLPFS
0.50,6 of 6,TISMLMNHMTRNTNNVA,NMDMREV,QQYDRLPLS
0.54,6 of 6,KLPQSTLYESRNQNSVA,WASTRES,QQYHRLPLS
1.67,6 of 6,KVEQSNPYESRNANSVA,NASQRLS,QQYHRLPLS
0.88,6 of 6,KINERMRMGENQQHSIA,NAAEIVK,QQYHNLPLG
no signal,0 of 6,MISQVLNMLTREGNNVA,DLKERED,QQYFRLPLS
0.47,6 of 6,HITMGMYVSGRHMSNIA,QAETREK,QQYDRLPLI
-0.33,6 of 6,HSSQGWLYESRNKNSVA,GASTRED,QQYHRLPLS
-0.07,6 of 6,KLQQSVPYESRNKNSVA,NASTRES,QQYHRLPLS
1.37,5 of 6,KFSQSVLYESKNKNSVA,WASTRES,QVYHRLPLS
0.50,6 of 6,KIQTKTYFENIGEYSVA,DANTSVD,QYYFRLPLS

Top 12 of the variants detected in all replicates, tightest first:

CDR-L1,CDR-L2,CDR-L3,"log10 Kd (nM), mean",seen in
KVSQSVLYESRNKNNVA,DASQRES,QQYHRLPLS,-0.54,6 of 6
KLSESVLYESRNKNSVA,GASTRES,QQYHRLPLS,-0.35,6 of 6
HSSQGWLYESRNKNSVA,GASTRED,QQYHRLPLS,-0.33,6 of 6
QLSQSVLYESRNKNSVA,NASTRES,QQYHRLPLS,-0.31,6 of 6
KGSGSVKFESRNKNSVA,DASTRES,QQYHRLPLS,-0.21,6 of 6
KLSGSVLYESRNKNSVA,NASTRLS,QQYHRLPLS,-0.20,6 of 6
KVSQSELYESRNKNSVA,EASQRES,QQYHRLPLS,-0.18,6 of 6
SISGFMKSLAAHMNSVA,DMTNRED,QQYNRLPLS,-0.09,6 of 6
KLQQSVPYESRNKNSVA,NASTRES,QQYHRLPLS,-0.07,6 of 6
KLSQLELYESRNKNSVA,NASTRLS,QQYHRLPLS,-0.06,6 of 6
KVQQSFLYESRNVMSVA,NASTREE,QQYHRLPLS,-0.06,6 of 6
FLSQSVLYEDRNKNSVA,NASTRES,QQYHRLPLS,-0.05,6 of 6